Measurements taken from article PMC3474356 (Chemistry & biology, 2011).

Test system: pfCYT bc1
Assay type: biochemical
Settings: ratio of IC50 hsCYT bc1 / pfCYT bc1

## O=C1C(O)=C([C@H]2CC[C@H](c3ccc(Cl)cc3)CC2)C(=O)c2ccccc21 [atovaquone]
  selectivity pfCYT bc1 compared to hsCYTbc1: 1750 fold
